The record followed here is ChEMBL document CHEMBL1131427, “Synthesis of imidazo[1,2-a]pyridines as antiviral agents” (J Med Chem, 1998).

The nature of this assay: Ratio of Cytotoxicity concentration to that of virus-inhibitory concentration. It is filed as functional. In a few lines: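 Selectivity index is the 50% cytotoxic concentration in HEL cells divided by the 50% inhibitory concentration against CMV strain AD-169 in HEL cells.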

`Nc1nc2c(ncn2COC(CO)CO)c(=O)[nH]1` [GANCICLOVIR]: the Selectivity index was above 200.
